Results taken from paper PMC4113800 (Marine Drugs, 2014).

Tested on: BCRP
Conditions: 11 at 30 μM for 24, 48 and 72 h; NCI-H460/MX20

COC(=O)c1c(-c2ccc(O)cc2)c(-c2ccc(O)cc2)cn1CC(=O)c1ccc(OC)cc1 [Compound 11, lamellarin O]
BCRP levels (expression, Western blotting): not significantly changed
